{"source": "patent US5916925A", "about": "“Pharmaceutical composition for treatment of dementia” (Takeda Chemical Industries, Ltd., priority 1996, dated 1999)", "key": {"[1]": {"test_system": "patients with senile dementia of Alzheimer's type", "test": "double-blind placebo controlled multicenter study, efficacy parameters (ADAS, CGI, NOSGER, SKT)", "format": "in vivo, human", "description": "In patients with senile dementia of Alzheimer's type, a double-blind placebo controlled multicenter comparative study was conducted under the conditions shown below.\n(1) Placebo administration\nOral administration just after every meal"}, "in vivo": {"test": "in vivo", "details": "rat, acute toxicity LD50"}, "rats": {"test_system": "rats", "details": "rat, in vivo"}}, "data": [{"compound": "COC1=C(OC)C(=O)C(CCCCCCCCCCO)=C(C)C1=O", "note": "[idebenone, 6-(10-hydroxydecyl) -2,3-dimethoxy-5-methyl-1,4-benzoquinone]", "values": [{"measurement": "CGI Therapeutic Effect, differences among groups", "setting": "[1]; 90 mg, 120 mg 3-times-a-day and placebo", "result": "significant differences among the three groups were noted, with dose dependency"}, {"measurement": "ADAS Cognitive Score, therapeutic effect", "setting": "[1]; period exceeding 6 months", "result": "excellent"}, {"measurement": "ADAS Sum Score, therapeutic effect", "setting": "[1]; period exceeding 6 months", "result": "excellent"}, {"measurement": "CGI Global Improvement, therapeutic effect", "setting": "[1]; period exceeding 6 months", "result": "excellent"}, {"measurement": "CGI Severity of Disease, therapeutic effect", "setting": "[1]; period exceeding 6 months", "result": "excellent"}, {"measurement": "CGI Therapeutic Effect, therapeutic effect", "setting": "[1]; period exceeding 6 months", "result": "excellent"}, {"measurement": "NOSGER IADL, therapeutic effect", "setting": "[1]; period exceeding 6 months", "result": "excellent"}, {"measurement": "NOSGER Sum Score, therapeutic effect", "setting": "[1]; period exceeding 6 months", "result": "excellent"}, {"measurement": "SKT, therapeutic effect", "setting": "[1]; period exceeding 6 months", "result": "excellent"}, {"measurement": "LD50", "setting": "in vivo", "result": "≥ 10000", "unit": "mg/kg"}, {"measurement": "acute toxicity LD50", "setting": "rats", "result": "about 10,000 mg/kg"}]}]}
